Columns and labels:
proteinase K = proteinase K (Parengyodontium album, UniProt P06873); experiment: Protease stability assay, proteinase K; assay type: in vitro ADME, fungal
pepsin = pepsin (Sus scrofa, UniProt P00791); experiment: Protease stability assay, pepsin; assay type: in vitro ADME, porcine
chymotrypsin = chymotrypsin (Bos taurus, UniProt P00766); experiment: Protease stability assay, chymotrypsin; assay type: in vitro ADME, bovine

Protein sequences, listed by entry. Tags and fused reporters are not part of them. Residues count along the entry.
UniProt P06873, 106-384: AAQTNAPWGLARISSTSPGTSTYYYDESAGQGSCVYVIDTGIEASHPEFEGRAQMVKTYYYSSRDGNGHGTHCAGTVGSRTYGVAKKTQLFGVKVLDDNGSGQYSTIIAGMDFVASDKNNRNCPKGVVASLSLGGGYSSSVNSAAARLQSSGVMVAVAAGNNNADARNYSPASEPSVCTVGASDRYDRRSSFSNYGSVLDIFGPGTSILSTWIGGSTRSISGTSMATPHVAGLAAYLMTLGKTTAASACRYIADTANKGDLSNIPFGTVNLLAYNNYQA
UniProt P00791, 60-385: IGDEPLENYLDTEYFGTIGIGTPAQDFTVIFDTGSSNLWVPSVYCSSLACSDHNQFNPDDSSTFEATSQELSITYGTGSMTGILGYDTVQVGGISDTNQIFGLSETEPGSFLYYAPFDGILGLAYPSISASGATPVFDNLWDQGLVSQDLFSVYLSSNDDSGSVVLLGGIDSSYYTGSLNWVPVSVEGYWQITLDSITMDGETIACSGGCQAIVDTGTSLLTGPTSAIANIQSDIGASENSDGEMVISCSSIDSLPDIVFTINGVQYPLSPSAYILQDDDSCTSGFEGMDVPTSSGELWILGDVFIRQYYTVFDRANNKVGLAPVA

CC(=O)N[C@@H](CC(C)C)C(=O)N[C@H](C(=O)N[C@@H](Cc1ccccc1)C(=O)N[C@@H](CCC(=O)O)C(=O)N[C@@H](Cc1cnc[nH]1)C(=O)N[C@@H](Cc1ccc(O)cc1)C(=O)N[C@@H](Cc1c[nH]c2ccccc12)C(=O)N[C@@H](C)C(=O)N[C@@H](CCC(N)=O)C(=O)N[C@@H](CC(C)C)C(=O)N[C@H](C(=O)N[C@@H](CO)C(N)=O)[C@@H](C)O)[C@@H](C)O [Peptide 1]
≤ 1 h: Time to cleavage by proteinase K (proteinase K) | Time to cleavage by pepsin (pepsin) | Time to cleavage by chymotrypsin (chymotrypsin)

Source: paper PMC9257625 (RSC Chemical Biology, 2022)
